{
  "source": "patent US20250059499A1",
  "about": "“CELL-SURFACE ENGINEERING COMPOSITIONS AND METHODS FOR THE PREVENTION OF IMMUNE REJECTION” (THE UNIVERSITY OF BRITISH COLUMBIA, priority 2021, published 2025)",
  "test_system": "Ea.hy926 cells co-cultured with HLA-A2-reactive CAR T cells",
  "format": "cell-based",
  "details": "effector:target 2:1, 1:2 and 1:10, 18 hours",
  "procedure": "The experiment was performed similar to previously described PBMC/Ea.hy926 co-culture experiments by replacing the effector with CAR-T cells. Ea.hy926 cells were engineered with polymers in UW solution as outlined. Cryopreserved CAR T cells were thawed using standard protocol41 and were pelleted and resuspended in phenol-free DMEM (5% FBS, pen/strep) at an effector (CAR-T cell) to target (Ea.hy926) ratios of 2:1, 1:2 and 1:10 (Vf=100 μL). After 18 hours, supernatants were removed from the wells and PBMCs were removed through centrifugation (300 g×5 minutes) and measured for LDH content to probe cell lysis using an LDH cytotoxicity assay (Biovision Inc.™). CAR-T cell-mediated cytotoxicity was calculated according to Eq. 2 replacing PBMC LDH release with CAR-T cell LDH release. LDH released by Ea.hy926 following 18 hour culture period that have not undergone polymer attachment and cultured in the absence of CAR-T cell is the 100% alive control and LDH released by Ea.hy926 following treatment with RIPA buffer for 10 minutes at ambient temperature is 100% dead control.",
  "data": [
    {"substance": "Linear polyglycerol sulfate glutamine [LPGS-Q]", "values": [
      {"measurement": "CAR-T cell induced endothelial cell cytotoxicity", "result": "performed similarly to non-sulfated counterparts"}
    ]}
  ]
}
